Target: calcineurin
Test: cell-based or functional assay

CM2 mutant 26-mer peptide was tested. Which inhibition of in vitro dephosphorylation of HA-NFAT1(1-460)-GFP and HA-NFAT4(1-407)-GFP in HEK-293 lysates by calcineurin/calmodulin (100-900 nM) did it give?
Its inhibition of in vitro dephosphorylation of HA-NFAT1(1-460)-GFP and HA-NFAT4(1-407)-GFP in HEK-293 lysates by calcineurin/calmodulin (100-900 nM) is over 400 µM.

What about the inhibition of in vitro dephosphorylation of HA-NFAT1(1-460)-GFP by calcineurin (200 nM) and calmodulin (Western blot) of the same substance?
Its inhibition of in vitro dephosphorylation of HA-NFAT1(1-460)-GFP by calcineurin (200 nM) and calmodulin (Western blot) is over 400 µM.
